Assay results reported in ChEMBL document CHEMBL5042469, “Unique Molecular Interaction with the Histone Deacetylase 6 Catalytic Tunnel: Crystallographic and Biological Characterization of a Model Chemotype” (J Med Chem, 2021).

Molecular target: T1, Protein deacetylase HDAC6 (Homo sapiens, UniProt Q9UBN7)
T1 sequence (Q9UBN7 whole entry): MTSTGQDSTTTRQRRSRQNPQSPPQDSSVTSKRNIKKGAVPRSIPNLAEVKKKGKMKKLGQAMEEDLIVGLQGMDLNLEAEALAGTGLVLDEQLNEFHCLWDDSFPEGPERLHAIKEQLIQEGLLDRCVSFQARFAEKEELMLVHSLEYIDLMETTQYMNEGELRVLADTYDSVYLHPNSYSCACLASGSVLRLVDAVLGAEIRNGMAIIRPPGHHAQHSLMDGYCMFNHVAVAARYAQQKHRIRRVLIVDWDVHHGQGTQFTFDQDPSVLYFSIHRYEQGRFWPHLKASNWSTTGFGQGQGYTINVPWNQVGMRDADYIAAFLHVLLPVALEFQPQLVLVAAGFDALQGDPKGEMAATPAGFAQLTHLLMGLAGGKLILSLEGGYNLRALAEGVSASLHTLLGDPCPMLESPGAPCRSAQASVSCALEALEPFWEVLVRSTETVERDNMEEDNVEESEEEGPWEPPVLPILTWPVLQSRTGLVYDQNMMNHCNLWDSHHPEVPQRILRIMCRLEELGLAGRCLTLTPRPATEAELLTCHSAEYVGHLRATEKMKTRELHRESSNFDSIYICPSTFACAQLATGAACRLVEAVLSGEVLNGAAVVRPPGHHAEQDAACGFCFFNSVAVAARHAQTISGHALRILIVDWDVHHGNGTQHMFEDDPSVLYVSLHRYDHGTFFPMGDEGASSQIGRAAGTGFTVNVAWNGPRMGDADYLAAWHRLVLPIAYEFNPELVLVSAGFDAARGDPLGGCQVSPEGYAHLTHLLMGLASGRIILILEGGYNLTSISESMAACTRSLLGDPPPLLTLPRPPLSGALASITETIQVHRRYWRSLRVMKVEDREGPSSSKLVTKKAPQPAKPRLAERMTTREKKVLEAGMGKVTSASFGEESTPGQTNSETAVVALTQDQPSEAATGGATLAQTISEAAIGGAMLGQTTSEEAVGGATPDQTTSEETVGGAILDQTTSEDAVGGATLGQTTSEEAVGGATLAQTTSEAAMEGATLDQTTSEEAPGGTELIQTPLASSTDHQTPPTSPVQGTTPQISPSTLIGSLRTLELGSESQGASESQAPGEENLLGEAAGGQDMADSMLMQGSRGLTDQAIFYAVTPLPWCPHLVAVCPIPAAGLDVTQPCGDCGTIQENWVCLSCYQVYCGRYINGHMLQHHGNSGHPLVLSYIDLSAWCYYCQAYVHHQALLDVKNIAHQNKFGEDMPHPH
Experiment: Binding affinity to human HDAC6 assessed as residence time by two-step reversible inhibition model; call rule not given here

IC50: Not Active
Structure (SMILES): O=C(CCCCCCNC(=O)c1cnc(N(c2ccccc2)c2ccccc2Cl)nc1)NO [CITARINOSTAT]
